Assay results from patent publication US9469597B2 (dated 2016).

Amino acid sequences for entries named in this document (tags omitted).
UniProt P27338, whole entry: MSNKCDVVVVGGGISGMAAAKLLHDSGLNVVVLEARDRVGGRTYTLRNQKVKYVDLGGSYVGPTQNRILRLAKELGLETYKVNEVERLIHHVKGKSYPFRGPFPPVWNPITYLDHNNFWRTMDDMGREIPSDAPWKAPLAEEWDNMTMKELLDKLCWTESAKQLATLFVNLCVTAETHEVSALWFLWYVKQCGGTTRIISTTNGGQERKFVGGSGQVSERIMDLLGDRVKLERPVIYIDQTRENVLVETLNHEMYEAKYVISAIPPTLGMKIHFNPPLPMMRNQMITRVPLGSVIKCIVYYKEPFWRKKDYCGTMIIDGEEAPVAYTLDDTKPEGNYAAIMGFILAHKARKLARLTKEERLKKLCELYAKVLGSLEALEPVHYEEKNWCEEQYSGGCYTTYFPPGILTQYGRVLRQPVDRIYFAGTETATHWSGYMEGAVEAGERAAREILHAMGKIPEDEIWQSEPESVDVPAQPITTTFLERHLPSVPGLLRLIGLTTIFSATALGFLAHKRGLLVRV

Key:
[1] = test system: THP-1 cells; assay: cells; details: Homo sapiens, THP-1, 96 h
[2] = target: Human recombinant monoamine oxidase MAO-B (Homo sapiens (Human), UniProt P27338); assay: Monoamine oxidase assay (kynuramine to 4-hydroxyquinoline fluorescence), MAO-B; assay type: biochemical
[3] = read-out: MAO-B (IC50-μM), Table 2

## NC1CCC(N[C@H]2C[C@@H]2c2ccc(-c3ccc4cn[nH]c4c3)cc2)CC1 (relative stereo) [Example 42, N1-((trans)-2-(4-(1H-indazol-6-yl)phenyl)cyclopropyl)cyclohexane-1,4-diamine]
[1]
  EC50: 0.0824 µM

## N[C@H]1CC[C@H](N[C@@H]2C[C@H]2c2ccccc2)CC1 [Example 5, (trans)-N1-((1R,2S)-2-phenylcyclopropyl)cyclohexane-1,4-diamine hydrochloride]
[2]; [3]
  IC50: > 100 µM

## Cl.N[C@H]1CC[C@H](N[C@H]2C[C@@H]2c2ccccc2)CC1 [Example 3, (trans)-N1-((1S,2R)-2-phenylcyclopropyl)cyclohexane-1,4-diamine hydrochloride]
[2]
  IC50: > 100 µM
  Ki: > 40 µM

## NC1CCC(N[C@@H]2C[C@@H]2c2ccccc2)CC1 (relative stereo) [Example 21, N1-((cis)-2-phenylcyclopropyl)cyclohexane-1,4-diamine]
[2]; [3]
  IC50: 1.36 µM

## N[C@H]1CC[C@@H](N[C@H]2C[C@@H]2c2ccccc2)CC1 [Example 2, (cis)-N1-((1S,2R)-2-phenylcyclopropyl)cyclohexane-1,4-diamine hydrochloride]
[2]
  IC50: > 100 µM
  Ki: > 40 µM

## N[C@H]1CC[C@@H](N[C@@H]2C[C@H]2c2ccccc2)CC1 [Example 4, (cis)-N1-((1R,2S)-2-phenylcyclopropyl)cyclohexane-1,4-diamine hydrochloride]
[2]
  IC50: > 100 µM
  Ki: > 40 µM

Where a name gives a salt, the structure may show the parent alone. Read-outs that look alike come from different tables or passages of the source.
